For 1 molecule, MIC results are on record in DBAASP.

This test relates to Escherichia coli K-12. Description: ≥ marks a high value that may be exact or a test limit, other limits are often not marked, values filed in µg/mL are converted to µM.

In turn, `CC(C)C[C@H](NC(=O)[C@H](CC(C)C)NC(=O)[C@H](CC(N)=O)NC(=O)[C@H](CCCCN)NC(=O)[C@H](CC(C)C)NC(=O)[C@H](CC(N)=O)NC(=O)[C@@H](N)C(C)C)C(=O)N[C@@H](CCCN=C(N)N)C(=O)O` [VNLKNLLR] came in with an MIC not below 128 µM.

For orientation: MIC means the lowest concentration that inhibits growth of the organism. Low readings indicate greater potency, high ones weaker potency.
